Measurements reported in patent US10174016B2 (BAYER AKTIENGESELLSCHAFT, priority 2014, dated 2019).
Like-named read-outs stand apart in the source and are kept apart here.

The chains behind the UniProt entries cited, without tags or fusion partners. Where a name states a change or a piece, a line headed by the entry shows the natural chain unless it says otherwise.
UniProt P56373: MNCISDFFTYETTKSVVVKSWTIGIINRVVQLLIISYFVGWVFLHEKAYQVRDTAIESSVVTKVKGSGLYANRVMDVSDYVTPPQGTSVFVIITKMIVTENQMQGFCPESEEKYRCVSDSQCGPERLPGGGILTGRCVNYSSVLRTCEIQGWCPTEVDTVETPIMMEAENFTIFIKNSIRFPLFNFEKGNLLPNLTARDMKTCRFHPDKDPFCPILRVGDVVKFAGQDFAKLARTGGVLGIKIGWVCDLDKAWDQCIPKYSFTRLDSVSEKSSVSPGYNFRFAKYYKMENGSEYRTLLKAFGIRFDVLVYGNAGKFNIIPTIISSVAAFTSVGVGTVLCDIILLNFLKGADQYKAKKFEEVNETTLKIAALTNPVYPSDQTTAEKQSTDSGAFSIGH
UniProt Q9UBL9: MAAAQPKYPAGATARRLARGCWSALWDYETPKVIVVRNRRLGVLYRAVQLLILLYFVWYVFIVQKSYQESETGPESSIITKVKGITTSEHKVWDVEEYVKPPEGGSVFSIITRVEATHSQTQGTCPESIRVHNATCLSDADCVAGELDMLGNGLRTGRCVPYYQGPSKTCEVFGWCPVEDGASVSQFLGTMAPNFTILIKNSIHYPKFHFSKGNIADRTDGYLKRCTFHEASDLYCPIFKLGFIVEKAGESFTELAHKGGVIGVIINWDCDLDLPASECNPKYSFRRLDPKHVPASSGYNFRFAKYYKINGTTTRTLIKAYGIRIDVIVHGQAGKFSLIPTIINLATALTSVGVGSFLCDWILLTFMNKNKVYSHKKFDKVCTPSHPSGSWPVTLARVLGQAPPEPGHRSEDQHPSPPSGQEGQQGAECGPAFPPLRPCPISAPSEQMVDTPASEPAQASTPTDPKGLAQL

Key:
human P2X2/3 receptor = human P2X2/3 receptor (Homo sapiens (Human), UniProt P56373+Q9UBL9); assay: Intracellular calcium measurement (FLIPR, Fluo-4) of antagonist activity at human P2X2/3 receptors; type: cell-based; settings: human P2X2/3, FLIPR calcium assay, agonist α,β-Me-ATP; read-out: hP2X2/3 IC50
human P2X3 receptor = human P2X3 receptor (Homo sapiens (Human), UniProt P56373)
[1] = hP2X3 IC50 (nM), human P2X3, FLIPR calcium assay, agonist α,β-Me-ATP

SMILES	IC50 (human P2X2/3 receptor) [nM]	IC50 (human P2X3 receptor; [1]) [nM]	further results
Cc1cnc(-c2cc(OC(C)C(C)O)cc(C(=O)N[C@H](C)c3ccc(C(F)(F)F)nn3)c2)s1 (single isomer, unassigned) [Example 230]	209	–	–
Cc1cnc(-c2cc(OC3CCN(C)C(C(F)(F)F)C3)cc(C(=O)N[C@H](C)c3cnc(C(F)(F)F)nc3)c2)s1 (single isomer, unassigned) [Example 222]	108	4	–
Cc1cnc(-c2cc(OC(C)C(C)O)cc(C(=O)N[C@H](C)c3ccc(C(F)(F)F)nn3)c2)s1 (single isomer, unassigned) [Example 231]	706	–	–
CC(O)C(C)Oc1cc(C(=O)N[C@H](C)c2ccc(C(F)(F)F)nc2)cc(-c2ncc(Cl)s2)c1 (single isomer, unassigned) [Example 186]	247	10	–
Cc1cnc(-c2cc(OC3CCCNC3)cc(C(=O)N[C@H](C)c3cnc(C(F)(F)F)nc3)c2)s1 (single isomer, unassigned) [Example 206]	1680	–	–
Cc1cnc(-c2cc(OC3CCOCC3)cc(C(=O)NC(C)c3nnc(C(F)(F)F)s3)c2)s1 (single isomer, unassigned) [Example 195, 3-(5-methyl-1,3-thiazol-2-yl)-5-(tetrahydro-2H-pyran-4-yloxy)-N-{1-[5-(trifluoromethyl)-1,3,4-thiadiazol-2-yl]ethyl}benzamide]	≥ 10000	–	–
CC(O)C(C)Oc1cc(C(=O)N[C@H](C)c2cnc(C(F)(F)F)nc2)cc(-c2ncc(Cl)s2)c1 (single isomer, unassigned) [Example 184]	128	6	–
Cc1cnc(-c2cc(OC3CCOCC3)cc(C(=O)NC(C)c3nnc(C(F)(F)F)s3)c2)s1 (single isomer, unassigned) [Example 196, 3-(5-methyl-1,3-thiazol-2-yl)-5-(tetrahydro-2H-pyran-4-yloxy)-N-{1-[5-(trifluoromethyl)-1,3,4-thiadiazol-2-yl]ethyl}benzamide]	293	–	–
CC(O)C(C)Oc1cc(C(=O)N[C@H](C)c2ccc(C(F)(F)F)nc2)cc(-c2ncc(Cl)s2)c1 (single isomer, unassigned) [Example 189]	258	8	–
CC(O)C(C)Oc1cc(C(=O)N[C@H](C)c2cnc(C(F)(F)F)nc2)cc(-c2ncc(Cl)s2)c1 (single isomer, unassigned) [Example 185]	123	4	IC50 (human P2X3 receptor; human P2X3 receptor IC50): 4 nM
Cc1cnc(-c2cc(OC(C)C(C)O)cc(C(=O)N[C@H](C)c3ccc(C(F)(F)F)nn3)c2)s1 (single isomer, unassigned) [Example 183]	398	–	–
CCc1cnc(-c2cc(OC[C@H]3CCOC3)cc(C(=O)N[C@H](C)c3ccc(C(F)(F)F)nn3)c2)s1 [Example 296, 3-(5-ethyl-1,3-thiazol-2-yl)-5-[(3S)-tetrahydrofuran-3-ylmethoxy]-N-{(1R)-1-[6-(trifluoromethyl)pyridazin-3-yl]ethyl}benzamide]	–	–	IC50 (human P2X3 receptor; read-out: hP2X3 IC50, human P2X3, FLIPR calcium assay, agonist α,β-Me-ATP): 6 nM
CC(O)C(C)Oc1cc(C(=O)N[C@H](C)c2cnc(C(F)(F)F)nc2)cc(-c2ncc(Cl)s2)c1 (single isomer, unassigned) [Example 187]	218	7	–
CCc1cnc(-c2cc(OC[C@@H]3CCOC3)cc(C(=O)N[C@H](C)c3ccc(C(F)(F)F)nn3)c2)s1 [Example 292, 3-(5-ethyl-1,3-thiazol-2-yl)-5-[(3R)-tetrahydrofuran-3-ylmethoxy]-N-{(1R)-1-[6-(trifluoromethyl)pyridazin-3-yl]ethyl}benzamide]	–	–	IC50 (human P2X3 receptor; read-out: hP2X3 IC50): 6 nM
CC(O)C(C)Oc1cc(C(=O)N[C@H](C)c2cnc(C(F)(F)F)nc2)cc(-c2ncc(Cl)s2)c1 (single isomer, unassigned) [Example 188]	164	5	–
Cc1cnc(-c2cc(OC3CCCNC3)cc(C(=O)N[C@H](C)c3cnc(C(F)(F)F)nc3)c2)s1 (single isomer, unassigned) [Example 205]	272	–	–
